These results are taken from patent publication US6936585B2, “Corticotropin releasing factor 2 receptor agonists” (priority 2002, dated 2005).

Bounds are passed on as bounds.

One assay deals with T1, CRF2R (Homo sapiens, UniProt Q13324).
T1 sequence (Q13324 1-411): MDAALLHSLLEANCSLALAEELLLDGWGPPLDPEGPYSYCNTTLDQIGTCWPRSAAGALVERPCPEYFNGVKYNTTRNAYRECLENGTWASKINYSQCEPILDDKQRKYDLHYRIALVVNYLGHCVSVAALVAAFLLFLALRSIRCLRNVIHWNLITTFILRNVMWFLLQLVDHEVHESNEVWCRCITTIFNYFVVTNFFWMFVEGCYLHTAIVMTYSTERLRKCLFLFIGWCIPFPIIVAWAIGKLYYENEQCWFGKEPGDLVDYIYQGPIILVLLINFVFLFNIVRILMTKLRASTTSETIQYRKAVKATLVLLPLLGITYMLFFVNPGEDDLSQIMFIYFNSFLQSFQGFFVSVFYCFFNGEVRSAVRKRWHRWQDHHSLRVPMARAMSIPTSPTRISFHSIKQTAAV
The experiment in a line: CRF2R agonist activation (EC50 / Emax), called comparative CRF binding. Format: cell-based. The note with it: for Emax: read-out: CRF2R Emax. The essentials:
(§1)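 Cells expressing full-length human CRF1R or CRF2R were exposed to peptide or vehicle control, and receptor activation was gauged as cAMP induction. cAMP was measured in cell lysates or via a cAMP-responsive element driving a reporter gene such as luciferase, CAT, GFP or alkaline phosphatase.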

The next assay has as its target T2, CRF1R (Homo sapiens, UniProt P34998).
T2 sequence (P34998 24-415): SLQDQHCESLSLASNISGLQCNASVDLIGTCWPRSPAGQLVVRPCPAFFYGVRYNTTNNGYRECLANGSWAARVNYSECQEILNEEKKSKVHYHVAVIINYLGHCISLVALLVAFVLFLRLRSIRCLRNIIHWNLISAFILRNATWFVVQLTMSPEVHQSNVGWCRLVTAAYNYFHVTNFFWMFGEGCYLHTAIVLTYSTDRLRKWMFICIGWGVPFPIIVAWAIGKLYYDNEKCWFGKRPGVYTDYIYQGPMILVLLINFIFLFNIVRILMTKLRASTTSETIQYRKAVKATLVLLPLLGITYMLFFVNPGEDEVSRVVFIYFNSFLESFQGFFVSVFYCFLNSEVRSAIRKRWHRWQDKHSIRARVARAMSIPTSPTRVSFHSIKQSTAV
The assay is described as follows: CRF1R agonist activation (EC50 / Emax), called comparative CRF binding. Format: cell-based. The note with it: for EC50: CRF1R EC50; for Emax: read-out: CRF1R Emax. The essentials: as §1

One may read the EC50 as the concentration that produces a half-maximal response. The low end stands for greater potency, the high end for weaker potency. By Emax is commonly meant the greatest response seen or fitted, relative to the assay's reference. As to `CC[C@H](C)[C@H](NC(=O)[C@H](CCCNC(=N)N)NC(=O)[C@H](C)NC(=O)[C@H](CC(C)C)NC(=O)[C@H](CC(C)C)NC(=O)[C@H](CCCNC(=N)N)NC(=O)[C@H](C)NC(=O)[C@H](CC(N)=O)NC(=O)[C@H](CC(N)=O)NC(=O)[C@H](C)NC(=O)[C@H](C)NC(=O)[C@H](CCC(N)=O)NC(=O)[C@H](CCC(N)=O)NC(=O)[C@H](CCCCN)NC(=O)[C@H](CCC(=O)O)NC(=O)[C@H](CCCCN)NC(=O)[C@H](CCC(=O)O)NC(=O)[C@H](CCC(N)=O)NC(=O)[C@H](CCCCN)NC(=O)[C@H](CCC(=O)O)NC(=O)[C@@H](NC(=O)[C@H](CCC(=O)O)NC(=O)[C@@H](NC(=O)[C@@H](NC(=O)[C@H](CCCCN)NC(=O)[C@H](CCCNC(=N)N)NC(=O)[C@H](CC(C)C)NC(=O)[C@H](CC(C)C)NC(=O)[C@H](Cc1c[nH]c2ccccc12)NC(=O)[C@H](Cc1ccc(O)cc1)NC(=O)[C@@H]1CCCN1C(=O)[C@@H](NC(=O)[C@H](CC(=O)O)NC(=O)[C@@H](NC(=O)[C@H](CO)NC(=O)[C@@H](NC(=O)[C@@H]1CCCN1C(=O)[C@@H]1CCCN1C(=O)CNC(=O)[C@@H]1CCC(=O)N1)[C@@H](C)CC)[C@@H](C)CC)C(C)C)C(C)C)[C@@H](C)CC)[C@@H](C)CC)C(N)=O` [compound 373], the EC50 on CRF2R is 11.5 nM; on CRF1R, not below 1000 nM. Further, the Emax is 100% at CRF2R and 9% on CRF1R.
As for `CC[C@H](C)[C@H](NC(=O)[C@@H](NC(=O)[C@H](CC(=O)O)NC(=O)[C@H](CC(C)C)NC(=O)[C@H](CC(C)C)NC(=O)[C@H](CC(C)C)NC(=O)[C@H](CCCNC(=N)N)NC(=O)[C@H](CC(N)=O)NC(=O)[C@H](CC(N)=O)NC(=O)[C@H](C)NC(=O)[C@H](C)NC(=O)[C@H](CCC(N)=O)NC(=O)[C@H](CCC(N)=O)NC(=O)[C@H](CCCCN)NC(=O)[C@H](CCC(=O)O)NC(=O)[C@H](CCCCN)NC(=O)[C@H](CCC(=O)O)NC(=O)[C@H](CCC(N)=O)NC(=O)[C@H](CCCCN)NC(=O)[C@H](CCC(=O)O)NC(=O)[C@@H](NC(=O)[C@H](CCC(=O)O)NC(=O)[C@@H](NC(=O)[C@H](CCSC)NC(=O)[C@H](CCCCN)NC(=O)[C@H](CCCNC(=N)N)NC(=O)[C@H](CC(C)C)NC(=O)[C@H](CC(C)C)NC(=O)[C@H](CCC(N)=O)NC(=O)[C@H](Cc1c[nH]cn1)NC(=O)[C@@H]1CCCN1C(=O)[C@H](CC(C)C)NC(=O)[C@H](CC(=O)O)NC(=O)[C@@H](NC(=O)[C@H](CO)NC(=O)[C@@H](NC(=O)[C@@H]1CCCN1C(=O)[C@@H]1CCCN1C(=O)CNC(=O)[C@@H]1CCC(=O)N1)[C@@H](C)CC)[C@@H](C)CC)[C@@H](C)CC)[C@@H](C)CC)[C@@H](C)O)C(N)=O` [compound 212], the Emax at CRF2R and at CRF1R was 100% each time.
For `CC[C@H](C)[C@H](NC(=O)[C@H](CCCNC(=N)N)NC(=O)[C@H](C)NC(=O)[C@H](CC(N)=O)NC(=O)[C@@H](NC(=O)[C@@H](NC(=O)[C@H](C)NC(=O)[C@H](CCC(N)=O)NC(=O)[C@H](CCC(N)=O)NC(=O)[C@H](CCCCN)NC(=O)[C@H](CCC(=O)O)NC(=O)[C@H](CCCCN)NC(=O)[C@H](CCC(=O)O)NC(=O)[C@H](CCC(N)=O)NC(=O)[C@H](CCCCN)NC(=O)[C@H](CCC(=O)O)NC(=O)[C@@H](NC(=O)[C@H](CCC(=O)O)NC(=O)[C@@H](NC(=O)[C@H](CC(C)C)NC(=O)[C@@H](NC(=O)[C@H](CCCNC(=N)N)NC(=O)[C@H](CC(C)C)NC(=O)[C@H](CC(C)C)NC(=O)[C@H](CCC(N)=O)NC(=O)[C@H](Cc1ccccc1)NC(=O)[C@@H]1CCCN1C(=O)[C@@H](NC(=O)[C@H](CC(=O)O)NC(=O)[C@@H](NC(=O)[C@H](CO)NC(=O)[C@@H](NC(=O)[C@@H]1CCCN1C(=O)[C@@H]1CCCN1C(=O)CNC(=O)[C@@H]1CCC(=O)N1)[C@@H](C)CC)[C@@H](C)CC)C(C)C)[C@@H](C)CC)[C@@H](C)CC)[C@@H](C)CC)[C@@H](C)O)[C@@H](C)O)C(=O)N[C@@H](CC(C)C)C(=O)N[C@@H](C)C(=O)N[C@@H](CCCNC(=N)N)C(=O)N[C@H](C(N)=O)C(C)C` [compound 171], the Emax on CRF2R was found to be 100%; at CRF1R it was 99%.
On to `CC[C@H](C)[C@H](NC(=O)[C@@H](NC(=O)[C@H](CC(=O)O)NC(=O)[C@H](CC(C)C)NC(=O)[C@H](CC(C)C)NC(=O)[C@H](CC(C)C)NC(=O)[C@H](CCCNC(=N)N)NC(=O)[C@H](CC(N)=O)NC(=O)[C@H](CC(N)=O)NC(=O)[C@H](C)NC(=O)[C@H](C)NC(=O)[C@H](CCC(N)=O)NC(=O)[C@H](CCC(N)=O)NC(=O)[C@H](CCCCN)NC(=O)[C@H](CCC(=O)O)NC(=O)[C@H](CCCCN)NC(=O)[C@H](CCC(=O)O)NC(=O)[C@H](CCC(N)=O)NC(=O)[C@H](CCCCN)NC(=O)[C@H](CCC(=O)O)NC(=O)[C@@H](NC(=O)[C@H](CCC(=O)O)NC(=O)[C@@H](NC(=O)[C@H](CCSC)NC(=O)[C@H](CCCCN)NC(=O)[C@H](CCCNC(=N)N)NC(=O)[C@H](CC(C)C)NC(=O)[C@H](CC(C)C)NC(=O)[C@H](C)NC(=O)[C@H](Cc1c[nH]cn1)NC(=O)[C@@H]1CCCN1C(=O)[C@H](CC(C)C)NC(=O)[C@H](CC(=O)O)NC(=O)[C@@H](NC(=O)[C@H](CO)NC(=O)[C@@H](NC(=O)[C@@H]1CCCN1C(=O)[C@@H]1CCCN1C(=O)CNC(=O)[C@@H]1CCC(=O)N1)[C@@H](C)CC)[C@@H](C)CC)[C@@H](C)CC)[C@@H](C)CC)[C@@H](C)O)C(N)=O` [compound 304], for which, on CRF2R, the EC50 amounted to 19.3 nM and the Emax came to 92.5%. Also, on CRF1R, the response was half-maximal at 116 nM (EC50) and the Emax came to 100%.
Taken in the same sequence, the figures for `CC[C@H](C)[C@H](NC(=O)[C@@H](NC(=O)[C@H](CC(=O)O)NC(=O)[C@H](CC(C)C)NC(=O)[C@H](CC(C)C)NC(=O)[C@H](CC(C)C)NC(=O)[C@H](CCCNC(=N)N)NC(=O)[C@H](CC(N)=O)NC(=O)[C@H](CC(N)=O)NC(=O)[C@H](C)NC(=O)[C@H](C)NC(=O)[C@H](CCC(N)=O)NC(=O)[C@H](CCC(N)=O)NC(=O)[C@H](CCCCN)NC(=O)[C@H](CCC(=O)O)NC(=O)[C@H](CCCCN)NC(=O)[C@H](CCC(=O)O)NC(=O)[C@H](CCC(N)=O)NC(=O)[C@H](CCCCN)NC(=O)[C@H](CCC(=O)O)NC(=O)[C@@H](NC(=O)[C@H](CCC(=O)O)NC(=O)[C@@H](NC(=O)[C@H](CCSC)NC(=O)[C@H](CCCCN)NC(=O)[C@H](CCCNC(=N)N)NC(=O)[C@H](CC(C)C)NC(=O)[C@H](CC(C)C)NC(=O)[C@@H](NC(=O)[C@@H](NC(=O)[C@@H]1CCCN1C(=O)[C@H](CC(C)C)NC(=O)[C@H](CC(=O)O)NC(=O)[C@@H](NC(=O)[C@H](CO)NC(=O)[C@@H](NC(=O)[C@@H]1CCCN1C(=O)[C@@H]1CCCN1C(=O)CNC(=O)[C@@H]1CCC(=O)N1)[C@@H](C)CC)[C@@H](C)CC)[C@@H](C)CC)C(C)C)[C@@H](C)CC)[C@@H](C)CC)[C@@H](C)O)C(N)=O` [compound 31] were 30.8 nM, 100%, more than 1000 nM and 18%.
Take `CC[C@H](C)[C@H](NC(=O)[C@H](CCCNC(=N)N)NC(=O)[C@H](C)NC(=O)[C@H](CC(N)=O)NC(=O)[C@@H](NC(=O)[C@@H](NC(=O)[C@H](C)NC(=O)[C@H](CCC(N)=O)NC(=O)[C@H](CCC(N)=O)NC(=O)[C@H](CCCCN)NC(=O)[C@H](CCC(=O)O)NC(=O)[C@H](CCCCN)NC(=O)[C@H](CCC(=O)O)NC(=O)[C@H](CCC(N)=O)NC(=O)[C@H](CCCCN)NC(=O)[C@H](CCC(=O)O)NC(=O)[C@@H](NC(=O)[C@H](CCC(=O)O)NC(=O)[C@@H](NC(=O)[C@H](CCSC)NC(=O)[C@H](CCCCN)NC(=O)[C@H](CCCNC(=N)N)NC(=O)[C@H](CC(C)C)NC(=O)[C@H](CC(C)C)NC(=O)[C@H](Cc1ccc(O)cc1)NC(=O)[C@@H](NC(=O)[C@@H]1CCCN1C(=O)[C@@H](NC(=O)[C@H](CC(=O)O)NC(=O)[C@@H](NC(=O)[C@H](CO)NC(=O)[C@@H](NC(=O)[C@@H]1CCCN1C(=O)[C@@H]1CCCN1C(=O)CNC(=O)[C@@H]1CCC(=O)N1)[C@@H](C)CC)[C@@H](C)CC)C(C)C)[C@@H](C)O)[C@@H](C)CC)[C@@H](C)CC)[C@@H](C)O)[C@@H](C)O)C(=O)N[C@@H](CC(C)C)C(=O)N[C@@H](C)C(=O)N[C@@H](CCCNC(=N)N)C(=O)N[C@H](C(N)=O)C(C)C` [compound 170]: at CRF2R, the EC50 came out at 75 nM and the Emax came out at 83%. Besides, at CRF1R, the EC50 was not below 1000 nM and the Emax is 9%.
